Apparent affinities of Ab-14 variants for a coronavirus HR2 peptide

Source: Li et al. 2023 (doi:10.1038/s41467-023-39022-2), MIT Lincoln Laboratory and A-Alpha Bio; data file from the FLAb repository.

Binding partner: SARS-CoV-2 spike HR2 peptide, sequence PDVDLGDISGINAS.

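The parent was found by panning a naive human phage display library on the peptide. These sequences belong to a second round, designed from the earlier measurements on random variants of the parent. Their group label is 14L_En_Gen (En: ensemble of fine-tuned language models; Gen: genetic algorithm). Affinity was read by AlphaSeq, a pooled yeast mating assay with surface-displayed partners. Pairs that bind mate more often; barcode pairs of the diploids are counted by sequencing. Each replicate has its own calibration line, from reference interactions of the BCL2 family. Each pool was mated in six replicate cultures.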

Ab-14 is the parent antibody, in scFv form: VH, then a (GGGGS)3 linker, then VL. The heavy chain is unchanged in all variants.
VH: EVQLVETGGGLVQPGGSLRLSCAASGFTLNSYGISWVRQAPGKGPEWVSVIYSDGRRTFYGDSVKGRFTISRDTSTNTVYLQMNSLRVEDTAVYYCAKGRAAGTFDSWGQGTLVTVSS
VL: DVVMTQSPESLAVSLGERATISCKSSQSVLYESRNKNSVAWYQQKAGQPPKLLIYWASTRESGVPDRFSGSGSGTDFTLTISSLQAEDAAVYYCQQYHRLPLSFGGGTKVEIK

Each variant is given by its three light chain CDRs, as the data file delimits them; those of the parent are KSSQSVLYESRNKNSVA, WASTRES, QQYHRLPLS.
The read-out is the apparent dissociation constant on a log10 scale (nM): the lower, the stronger.
Replicates are averaged; those with no signal do not enter the mean.
Where no diploid with the target was found in that replicate, the entry reads "n.d.": below detection, most likely a poor binder, though not proof of it.
Values of this round are not directly comparable with the first-round values of the same sequences.
Of ten entries with the parent sequence, four were seen in most replicates (averages 0.34 to 2.37), three in one and three in none, so single entries are noisy.
The authors averaged sequences with at least three values out of six and counted those with two or fewer as poor binders.
Three control strains display no target. For all light chain designs, 4% of the pairings with them gave a signal, with a median of 2.64 and one signal in twenty below 1.59, so weak values seen in few replicates may be background. For each scFv, signals with the empty controls are counted beside the result, with their mean in brackets.

CDR-L1	CDR-L2	CDR-L3	log10 Kd (nM) by replicate	mean log10 Kd (nM)	signal with controls
QISMLLNFESKKGNNVA	QMETRVN	QQYDRLPLS	0.12 0.09 -0.10 0.04 -0.19 -0.01	-0.01	2/18 (2.67)
MISQVLNTLTRTGNNVA	DLAERED	QQYFRLPLS	0.02 0.04 -0.04 -0.10 0.19 0.25	0.06	1/18 (2.37)
TISNVMNTLTRHGNNVA	DLAERED	QQYFRLPLS	0.15 -0.01 -0.21 -0.13 -0.15 0.10	-0.04	0/18
TLYGLTNSMLKNKDNVA	EMSTREA	QQYDRLPLM	n.d. 1.01 0.86 0.34 0.65 1.11	0.79	0/18
SISGFMKSLSAHINSVA	DMTNREN	QQYDRLPLS	0.65 0.66 0.79 0.72 0.56 0.93	0.72	0/18
MISQLYNMGQFAINSVA	QASERNN	QQYDRLPLM	2.48 n.d. 1.15 n.d. n.d. n.d.	1.81	0/18
TISMLMNHMTRNSNNVA	NMDMREA	QQYDRLPLS	0.31 0.54 0.42 0.18 0.37 0.60	0.40	1/18 (1.27)
TIGQTLMQGIRNRSNVA	EVSQRLN	QQYDRLPLV	1.48 1.07 0.78 1.31 1.54 1.17	1.22	0/18
MMSQVTGMGQRHRNNVA	QTSTREE	QQYDRLPLI	0.42 0.75 0.66 0.80 0.55 0.84	0.67	1/18 (2.54)
MISQVMNTLTRHGNNVA	DLQEREE	QQYDRLPLS	1.27 2.29 1.05 1.93 2.54 1.06	1.69	0/18
KLTSITGTEKVRGQNVA	EMETREN	QQYNRLPLS	0.35 0.24 -0.07 -0.14 -0.13 0.20	0.08	2/18 (1.96)
HMSMLTLGGMKARNSVA	QMTTREN	QQYDRLPLS	0.69 0.44 -0.18 0.58 0.00 0.31	0.30	0/18
KISQMQRVGSTHGNSIA	EEATRLN	QQYHRLPLS	0.87 0.64 0.04 0.15 0.35 0.36	0.40	0/18
KVSSFMRGLMMRTDSIA	DNETRHS	QQYDRLPLS	n.d. 1.97 1.86 n.d. n.d. n.d.	1.91	0/18
IVSQLMLWGLHAKNSIA	EAQTRLN	QQYDRLPLF	0.53 0.43 0.75 0.85 0.38 0.51	0.57	1/18 (2.36)
MIHESMGLMMHKHSSIA	DNSTREE	QQYDRLPLS	n.d. 2.49 n.d. n.d. 1.98 n.d.	2.24	0/18
QIYQAMHTLSQMKDNVA	DVNERGR	QQYYRLPLS	0.71 0.64 0.26 0.88 0.17 0.79	0.58	1/18 (2.18)
MISQLYNSGQFAINSVA	QASLRCN	QQYDRLPLM	1.57 1.98 1.46 1.47 1.82 1.89	1.70	2/18 (2.25)
MISQLMNMGTFAINSVA	QASIRNS	QQYDRLPLI	1.12 0.78 0.97 0.83 1.33 1.08	1.02	2/18 (2.53)
RLSALSGIQEVNRNSVA	QNSTRES	QQYDHLPLS	n.d. 4.06 n.d. n.d. 2.70 n.d.	3.38	0/18
MISQLYNMGTFAINSVA	QASLRCN	QQYDRLPLE	n.d. 2.21 1.65 2.59 2.65 4.91	2.80	1/18 (2.44)
HMSMLTLMGSRQRNSVA	QMTTREN	QQYDRLPLV	n.d. 2.10 n.d. 2.20 2.22 2.96	2.37	0/18
IVSQLMLWGHLAKNSIA	EAVTRLN	QQYDRLPLF	1.27 2.55 2.24 n.d. 1.77 1.69	1.90	0/18
HMSMITLMGSRNRNSVA	QMTTREN	QQYDHLPLA	1.80 2.02 2.66 1.92 2.24 2.45	2.18	0/18
MISQILNMGQFAINSVA	QASLRCN	QQYDRLPLM	n.d. n.d. n.d. n.d. n.d. n.d.	n.d.	0/18
KLSGVMASSKFAKDNVA	ENNTRED	QQYDRLPLS	n.d. 2.22 n.d. 2.57 2.45 2.52	2.44	1/18 (2.30)
MMSQVQGMGTRHRNNVA	QTSTREE	QQYDRLPLV	1.08 0.63 0.64 0.49 0.69 0.84	0.73	1/18 (3.04)
HITYGMYVSGRYKSNIA	QAETRMK	QQYDRLPLI	1.52 1.30 1.24 1.34 1.51 1.72	1.44	1/18 (3.44)
KLSATTEMEHVNRNSVA	ELVTRMK	QQYNRLPLS	1.38 1.00 1.03 0.80 1.12 0.82	1.02	2/18 (2.54)
TISQLMNMGQFAINSVA	QASIRNE	QQYDRLPLQ	1.49 1.26 1.27 1.34 1.04 1.60	1.33	3/18 (2.85)
MISQVMNTLTRHGNNVA	DLAEREA	QQYFRLPLS	0.95 2.62 1.67 0.77 1.69 1.54	1.54	0/18
MISQLWNMGTFAINSVA	QASIRNA	QQYDRLPLI	0.59 0.65 0.51 0.37 0.62 0.58	0.55	2/18 (3.14)
TISSVMNHMTRIENNVA	NQDMREE	QQYDRLPLS	1.16 0.83 0.85 1.33 1.22 1.44	1.14	0/18
IVSQLMMWGLHAKNSIA	EAVTRLN	QQYDRLPLF	n.d. n.d. n.d. n.d. n.d. n.d.	n.d.	0/18
TISQLMNMGQFAINSVA	QASIRNH	QQYDRLPLM	n.d. n.d. n.d. n.d. n.d. n.d.	n.d.	0/18
HMSMLTLGGMKARNSVA	QMTTREN	QQYDRLPLA	0.50 0.56 0.30 0.49 0.48 0.50	0.47	1/18 (2.19)
QLGMATMLQETVRNSVA	NNSTRES	QQYDRLPLS	2.40 1.55 1.71 2.07 1.94 3.06	2.12	1/18 (1.54)
KISQMIRVGTTASNSIA	EEVTRAK	QQYHRLPLA	2.16 1.30 1.67 1.98 1.21 1.82	1.69	0/18
KIGMTLNQLEHKQNNVA	DLVTREN	QQYHRLPLS	0.62 0.77 0.57 0.42 0.58 0.56	0.59	5/18 (2.58)
MMSQVTGMGQRHRNNVA	QTSMRET	QQYDRLPLI	1.63 0.87 1.09 0.47 1.93 0.55	1.09	0/18
TLYGLSMSMAKNKNNVA	EMTTREK	QQYDRLPLQ	1.07 0.99 0.58 1.16 0.97 1.53	1.05	0/18
KLSSVTGTEKVKGNNVA	EMETRER	QQYNRLPLA	0.21 0.14 -0.15 -0.25 -0.17 0.21	0.00	1/18 (3.24)
TISELYNQALGMRNNVA	NNQTRED	QQYNRLPLS	1.65 0.78 1.44 1.21 1.15 1.36	1.26	0/18
TIGQTLMQGIRNRSNVA	EVSQRLN	QQYDRLPLL	1.73 1.61 1.35 1.18 2.59 1.83	1.72	0/18
SISGFMKSLAAHSNSVA	DMTNRES	QQYDRLPLS	0.57 0.65 0.39 0.28 0.35 0.34	0.43	2/18 (2.10)
HITYGMMVAGRHSKSIA	QAETRAK	QQYDRLPLI	1.42 1.51 1.47 1.59 1.66 1.72	1.56	1/18 (2.80)
HITYGMMVAGRHSKSIA	QAETRAK	QQYDRLPLS	1.96 1.62 2.06 1.73 1.62 2.44	1.91	2/18 (3.10)
TISGIMDQMSHSKNNVA	EVSMRFD	QQYFRLPLE	1.68 n.d. n.d. n.d. n.d. n.d.	1.68	1/18 (2.99)
IVSQLMLWGYLAKNSIA	EAEMRLN	QQYERLPLF	n.d. n.d. 1.94 n.d. n.d. n.d.	1.94	0/18
SLYEMSVELSGKTHSVA	DNSTRGD	QQYFRLPLE	0.88 1.01 0.72 0.37 0.35 0.49	0.64	0/18
IISQVMNTLTRHGNNVA	DLAERED	QQYFRLPLS	n.d. n.d. n.d. n.d. n.d. n.d.	n.d.	0/18
MISQLMNMGQFAINSVA	QASQRCN	QQYDRLPLM	0.94 1.31 n.d. 1.48 1.24 1.56	1.31	0/18

Picked from the list: the 3 lowest averages where every replicate gave a value.

CDR-L1	CDR-L2	CDR-L3	log10 Kd (nM) by replicate	mean log10 Kd (nM)	signal with controls
TISNVMNTLTRHGNNVA	DLAERED	QQYFRLPLS	0.15 -0.01 -0.21 -0.13 -0.15 0.10	-0.04	0/18
QISMLLNFESKKGNNVA	QMETRVN	QQYDRLPLS	0.12 0.09 -0.10 0.04 -0.19 -0.01	-0.01	2/18 (2.67)
KLSSVTGTEKVKGNNVA	EMETRER	QQYNRLPLA	0.21 0.14 -0.15 -0.25 -0.17 0.21	0.00	1/18 (3.24)